Reference: publication PMC6365485 (British Journal of Pharmacology, 2019)

Protein sequences, listed by entry. Tags and fused reporters are not part of them. Lines headed by an entry give the natural chain unless they say otherwise; changes in a name come on top.
UniProt P43116: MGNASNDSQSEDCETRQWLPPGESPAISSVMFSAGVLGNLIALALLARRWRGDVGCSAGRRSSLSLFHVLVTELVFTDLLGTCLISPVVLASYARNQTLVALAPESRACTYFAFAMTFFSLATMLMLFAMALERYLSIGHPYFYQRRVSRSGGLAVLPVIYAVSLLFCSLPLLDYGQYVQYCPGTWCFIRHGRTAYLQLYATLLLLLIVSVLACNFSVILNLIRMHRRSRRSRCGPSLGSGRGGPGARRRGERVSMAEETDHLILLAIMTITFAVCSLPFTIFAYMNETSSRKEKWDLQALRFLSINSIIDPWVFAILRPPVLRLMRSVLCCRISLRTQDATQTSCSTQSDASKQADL

Key:
[1] = biological target: T1, human recombinant EP2 receptor (Homo sapiens, UniProt P43116); assay: cAMP accumulation, HEK cells; type: cell-based
[2] = biological target: T1, human recombinant EP2 receptor; assay: [3H]PGE2 displacement, membranes; type: binding

## CCCCC[C@H](O)/C=C/[C@H]1[C@H](O)CC(=O)[C@@H]1C/C=C\CCCC(=O)O [PGE2]
[1]
  EC50: 0.2 nM
[2]
  Ki: 6.31 nM
